{"sequences": {"note": "Sequences of proteins named here, by UniProt entry; tags and fusion partners are left off. Residues count along the entry.", "UniProt A0A286XTF2, 1-366": "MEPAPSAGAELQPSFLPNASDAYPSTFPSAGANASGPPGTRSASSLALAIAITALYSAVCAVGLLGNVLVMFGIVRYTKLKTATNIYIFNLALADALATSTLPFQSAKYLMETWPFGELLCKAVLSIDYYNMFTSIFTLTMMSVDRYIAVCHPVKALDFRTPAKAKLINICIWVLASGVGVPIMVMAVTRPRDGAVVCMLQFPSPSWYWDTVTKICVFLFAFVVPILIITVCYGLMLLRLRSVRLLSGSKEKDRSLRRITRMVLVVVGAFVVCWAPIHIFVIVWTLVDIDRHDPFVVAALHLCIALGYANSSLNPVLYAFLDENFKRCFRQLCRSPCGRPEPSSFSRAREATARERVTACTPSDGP"}, "source": "patent US5254569A", "about": "“(Amidomethyl)nitrogen heterocyclic analgesics” (The Du Pont Merck Pharmaceutical Company, priority 1991, dated 1993)", "target": "T1, delta opioid receptor (Cavia porcellus, UniProt A0A286XTF2)", "T1 construct": "Whole brains were homogenized (20 sec) in 10 vol (wt/vol) of ice-cold 0.34 M sucrose; tissue Charles River (animals); host or cells: guinea pig whole-brain membranes", "type": "binding, guinea pig", "settings": "read-out: apparent Kd", "note": "pKd: −log10 of the molar value."}
{"substance": "[D-Ala^2 -D-Leu^5 ]enkephalin [[3H]DADLE]", "values": [{"measurement": "pKd", "result": 9.19}]}
